In patent publication US11401278B2, “Macrocyclic indole derivatives” (The Broad Institute, Inc., priority 2017, dated 2022):

Experiments:
SUDHL5 = assay: Induction of caspase-3/7 activity (Assay 4), SUDHL5; details: read-out: Caspase SUDHL5 [M] (median) EC50, caspase-3/7 induction, 3 hours
Experimental: Cellular Assays Assay 4 Induction of Caspase-3/7 Activity Upon Treatment of Cells with Selected Compounds
The BH3-domain of MCL-1 sequesters pro-apoptotic proteins, thereby inhibiting apoptosis. In contrast, MCL-1 inhibitors are expected to antagonize this effect leading to an increase in apoptosis, which can be determined by measuring the activity of caspase-3/7.
The activity of caspase-3/7 was determined in DLBCL (Diffuse large B-cell lymphoma) cell lines (SUDHL5 and SUDHL10) upon treatment with different compounds, using the Caspase-Glo® 3/7 reagent from Promega (G8092).
The different cell lines were plated in culture medium (RPMI 1640 [GIBCO #22400-089] supplemented with 10% Fetal Bovine Serum) at a density of 3,300 cells in 30 μl/well in a sterile, solid black, flat bottom, polystyrene, TC-treated 384-well microplate (Corning #3571) using Multidrop Combi Reagent Dispenser. […]
On the next day, the cells were treated with compounds (stock solution, 10 mM in DMSO) using the HP D300 Digital Dispenser in a concentration range of 3.3×10e-5 M (33 μM) to 5×10e-9 M (5 nM) in a single-dot curve with at least 16 dilutions and a DMSO concentration of 0.33%. […] Finally, luminescence was read at 0.1 ms, with a gain of 3000 using the PHERAstar FS microplate reader (BMG Labtech).
For the evaluation of the results, the background measured with “medium-only” was subtracted from all other values. […]

MCL-1 = MCL-1 (Homo sapiens (Human), UniProt Q07820, K194A/K197A/R201A); assay: Protein-protein interaction assay MCL-1/Noxa BH3 peptide (MCL-1 assay, TR-FRET); details: read-out: MCL-1 Assay [M] (median) IC50, MBP-MCL-1 / Noxa BH3 peptide
Experimental: Protein-Protein Interaction Assay: MCL-1/Noxa BH3 Peptide (MCL-1 Assay)
The dose-dependent inhibition by the compounds described in this invention of the interaction between MCL-1 and the BH3 domain of Noxa (both human) was determined using a steady state binding competition assay with time-resolved fluorescence energy transfer (TR-FRET) readout. For that purpose MCL-1 (amino acids 173-329, N-terminal fused to Maltose Binding Protein (MBP) SEQ ID 1) and a synthetic Noxa BH3-derived peptide of sequence Biotin-PEG2-PEG2-PAELEVE-Nva-ATQLRRFGDKLNFRQKLL-amide (SEQ ID 2) served as protein receptor and tracer ligand respectively. The MBP-MCL-1 was purchased from Beryllium (Bedford, Mass., USA). The expression and purification of this protein construct has been described elsewhere (DOI:10.1371/journal.pone.0125010). The Noxa BH3-derived peptide can be obtained from e.g. Biosyntan (Berlin, Germany).
In the assay 11 different concentrations of each compound (0.1 nM, 0.33 nM, 1.1 nM, 3.8 nM, 13 nM, 44 nM, 0.15 μM, 0.51 μM, 1.7 μM, 5.9 μM and 20 μM) were typically measured as duplicates in the same microtiter plate. […]
The mixture was incubated in the dark for one hour at 22° C. and then overnight at 4° C. The formation of MCL-1/Noxa complexes was determined by measuring the resonance energy transfer of the anti-MBP-Eu-cryptate antibody to the streptavidin-XL665 present in the reaction. […]

EC50 (SUDHL5): 1.5e-06 M
IC50 (MCL-1): 1.9e-09 M
SMILES: CCc1c2c(nn1C)CNS(=O)(=O)CCCn1c(C(=O)O)c(CCCOc3cccc4cc(F)ccc34)c3ccc(Cl)c-2c31
